Where “and” joins values, the source holds several entries; their conditions need not be identical. Equal entries are not always repeated. Some of the results follow. Results with a measured potency or affinity are listed apart. Calls of active or inactive are those of the source. No stated cut-off is given here; in the data, active means inhibition above about 50%; inactive means the rest.
The compounds below were run against Kappa-type opioid receptor (Homo sapiens) (UniProt P41145) (assay: KOR antagonists, beta-arrestin recruitment, cell-based, luminescence, uHTS (AID 1778)). Conditions: antagonist mode, at 10 µM, active compounds read high.

By UniProt entry, the sequences of proteins in these tests, tags left out. Where a name states a change or a piece, a line headed by the entry shows the natural chain unless it says otherwise.
UniProt P41145: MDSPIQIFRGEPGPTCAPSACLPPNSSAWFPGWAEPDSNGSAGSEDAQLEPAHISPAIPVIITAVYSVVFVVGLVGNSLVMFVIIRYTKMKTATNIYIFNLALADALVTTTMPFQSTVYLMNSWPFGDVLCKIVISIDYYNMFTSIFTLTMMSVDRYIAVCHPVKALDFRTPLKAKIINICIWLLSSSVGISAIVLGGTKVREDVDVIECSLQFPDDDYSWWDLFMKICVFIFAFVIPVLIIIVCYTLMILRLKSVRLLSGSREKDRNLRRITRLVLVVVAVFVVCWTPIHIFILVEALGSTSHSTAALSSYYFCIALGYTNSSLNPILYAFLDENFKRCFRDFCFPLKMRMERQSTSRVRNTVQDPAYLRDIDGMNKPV

Row | Compound | inhibition
1 | Cn1c(=O)c2c(ncn2CC(=O)Nc2ccccc2N2CCOCC2)n(C)c1=O | inactive: 26.2%
2 | CCc1cccc(CC)c1N(COC)C(=O)Cn1c(C(C)O)nc2ccccc21 (centres undefined) | inactive: -10.7%
3 | Cc1ccc(OP(=O)(Nc2ccccn2)Oc2ccc(C)cc2)cc1 | inactive: 8%
4 | CC(=O)NC(SC(=S)N(CC(C)C)CC(C)C)C(Cl)(Cl)Cl (centres undefined) | inactive: 12.7%
5 | CCOC(=O)C1=C(Cn2cnc3ccccc32)NC(=O)NC1c1ccc(Cl)cc1 (centres undefined) | inactive: -5.6%
6 | Cc1ccccc1OP(=O)(Nc1ccccn1)Oc1ccccc1C | inactive: 4.9%
7 | CCc1cccc(C)c1N(C(=O)Cn1c(CO)nc2ccccc21)C(C)COC (centres undefined) | inactive: -34.2%
8 | CC1CCCN(C(=O)Cn2cnc3c2c(=O)n(C)c(=O)n3C)C1 (centres undefined) | inactive: 3.9%
9 | CN(C)C(=O)Oc1noc2ccccc12 | inactive: -12.5%
10 | Cc1ccc(OCCNC(=O)Cn2cnc3c(=O)n(C)c(=O)n(C)c32)cc1C | inactive: 18.2%
11 | CN(C)CCn1cnc2ccccc21 | inactive: -24%
12 | COCCNC(=O)Cn1c(=O)n(C)c2ccccc21 | inactive: 15.9%
13 | Cn1c(=O)c2c(ncn2CC(=O)N2CCN(c3ccccc3)CC2)n(C)c1=O | inactive: 7.4%
14 | COCCN1CCn2c(nc3cc(Nc4nnc(C)c5ccccc45)ccc32)C1 | inactive: 25.7%
15 | Cc1ccc(C)c(S(=O)(=O)N2CCN(C(=O)Cn3c(C(F)(F)F)nc4ccccc43)CC2)c1 | inactive: 2%
16 | COC(=O)C1=C(C)N=C2SCCC(=O)N2C1/C=C/c1ccccc1 (centres undefined) | inactive: -5.4%
17 | CC1CCN(C(=O)Cn2c(SCC(=O)Nc3nccs3)nc3ccccc32)CC1 | inactive: -34.1%
18 | CCOC(=O)c1ccccc1NC(=O)Cn1c(-c2nonc2N)nc2ccccc21 | inactive: -155%
19 | CC(C)NC(=O)CC1C(=O)N(Cc2ccccc2)C(C)c2nc3ccccc3n21 (centres undefined) | inactive: 29.6%
20 | C(=N\c1nc2ccccc2n1CCN1CCCCC1)/c1ccc2c(c1)OCO2 | inactive: 12.2%

Row | Compound | inhibition
21 | O=P(Nc1nc2ccc(Cl)cc2s1)(c1ccccc1)c1ccccc1 | inactive: 24.5%
22 | O=C(Cn1c(Cc2ccccc2)nc2ccccc21)NCc1ccc2c(c1)OCO2 | inactive: 7.3%
23 | O=C(O)c1ccccc1[As](=O)(O)O | inactive: 19.3%
24 | O=C(Cn1c(COc2ccccc2)nc2ccccc21)Nc1cc(Cl)cc(Cl)c1 | inactive: -23.5%
25 | CC(=O)Nc1ccc([As](=O)(O)O)cc1 | inactive: 18.5%
26 | Cn1c(=O)c2ncn(CC(=O)Nc3ccc4c5c(cccc35)CC4)c2n(C)c1=O | inactive: 29.7%
27 | CCOc1cccc(N2C(=O)CC(n3cnc4ccccc43)C2=O)c1 (centres undefined) | inactive: 14.2%
28 | Cc1ccc2c(c1)C1CN(C)CCC1N2C(=O)c1ccccc1NS(=O)(=O)c1ccc(F)cc1 (centres undefined) | inactive: -25.8%
29 | O=C(Cn1c(NCCO)nc2ccccc21)NCC(F)(F)F | inactive: -19.7%
30 | CC(C)[C@H](NC(=O)N1CCn2c1nc1ccccc12)C(=O)NCc1ccccc1Cl | inactive: -45%
31 | O=C(Cn1cnc2ccccc21)NCc1ccccc1 | inactive: 20.8%
32 | Cn1c(=O)n(CCN2CCOCC2)c(=O)c2c1nc1n2CCN1c1ccc(Oc2ccccc2)cc1 | inactive: -8%
33 | COc1ccc(N2CCN(C(=O)Cn3cnc4c3c(=O)n(C)c(=O)n4C)CC2)cc1 | inactive: 9.4%
34 | Cc1cccc(NC(=O)Cn2c(=O)n(C)c3ccccc32)c1 | inactive: -7.7%
35 | COc1ccc(NC2CCN(C3CC(=O)N(c4ccc(F)c(Cl)c4)C3=O)CC2)cc1 (centres undefined) | inactive: 21.8%
36 | CCCCOC(=O)Cn1c(=N)n(CCN(CC)CC)c2ccccc21 | inactive: -13%
37 | O=C(Cn1c(COc2ccccc2)nc2ccccc21)Nc1cccc(Cl)c1 | inactive: -27.4%
38 | CCOP(=O)(Nc1ccccc1)OCC | inactive: -6.7% and inactive: 35%
39 | CCOc1ccc2nc(NC(=O)Cn3cnc4c3c(=O)n(C)c(=O)n4C)sc2c1 | inactive: -51.1%
40 | O=C(Cn1c(/C=C/c2ccccc2)nc2ccccc21)Nc1ccc(F)cc1 | inactive: 14.5%

Row | Compound | inhibition
41 | Cc1csc2c(NC3CCN(Cc4ccccc4)CC3)ncnc12 | inactive: 7.9%
42 | CCC(=O)Nc1nc2ccccc2n1CCN1CCOCC1 | inactive: 4%
43 | Cc1cccc(OCC(O)Cn2c(=N)n(CCN3CCOCC3)c3ccccc32)c1 (centres undefined) | inactive: -13.8%
44 | O=C(CSc1nc2ccccc2n1CC(=O)N1CCCC1)NCc1ccc2c(c1)OCO2 | inactive: -46.9%
45 | Cc1cc(SC(NC(=O)c2ccc(F)cc2)C(Cl)(Cl)Cl)ncn1 (centres undefined) | inactive: -21.5%
46 | c1ccc(CN2CCC(Nc3nc(-c4cccs4)nc4ccccc34)CC2)cc1 | inactive: -119%
47 | Cc1ccc(NP(=O)(Oc2ccccc2F)Oc2ccccc2F)nc1 | inactive: 17.7%
48 | Cn1c(=O)c2c(ncn2CC(=O)Nc2nc3ccc(F)cc3s2)n(C)c1=O | inactive: -29.5%
49 | Cn1c(=O)c2c(ncn2CC(N)=O)n(C)c1=O | inactive: 1.2%
50 | O=C(Cn1c(-c2cncs2)nc2ccccc21)NCc1ccccc1 | inactive: -4.8%
51 | O=[N+]([O-])c1cc([N+](=O)[O-])c(CCN2CCOCC2)c([N+](=O)[O-])c1 | inactive: -7.3%
52 | COc1ccc(N2C(=O)CC(n3c(CCCCO)nc4ccccc43)C2=O)cc1 (centres undefined) | inactive: 19.5%
53 | O=C(Nc1ccc2c(c1)nc1n2CCN(Cc2ccccc2)C1)c1cccs1 | inactive: -19.8%
54 | O=C(CCC(=O)Nc1ccccc1)N/N=C/C=C/c1ccccc1 | inactive: 3.2%
55 | CC1CN(Cc2nc3c(c(=O)[nH]c(=O)n3C)n2CCN2CCOCC2)CC(C)O1 (centres undefined) | inactive: -5.6%
56 | CC(C)NC(=O)Cn1c(SCC(=O)N2CCCCCC2)nc2ccccc21 | inactive: 21.1%
57 | Cc1ccccc1NC(=O)Cn1cnc2c1c(=O)n(C)c(=O)n2C | inactive: -4.2%
58 | O=C(Cn1c(COc2ccccc2)nc2ccccc21)Nc1cc(Cl)ccc1Cl | inactive: -5.2%
59 | COc1ccc(CC(=O)N2CCC(Nc3nc4ccccc4n3Cc3ccc(F)cc3)CC2)cc1 | inactive: -7.8%

— PubChem BioAssay AID1778 (Sanford-Burnham Center for Chemical Genomics, 2009)
